According to BindingDB's records for doi:10.1021/acs.jmedchem.8b00408 (Duquesne University, 2018):

Target: Folate receptor alpha (Homo sapiens) (UniProt P15328)
Assay: Binding affinity to human FRalpha expressed in human HeLa R1-11-FR2 cells assessed as antiproliferative activity measured as reduction in cell growth after 96 hrs by Cell-Titer Blue assay

Nc1nc2[nH]c(CCCc3csc(C(=O)N[C@@H](CCC(=O)O)C(=O)O)c3)cc2c(=O)[nH]1
IC50: 7.6 nM
